Measurements published in ChEMBL document CHEMBL1147724, “Synthesis and in vitro antileukemic activity of some new 1,3-(oxytetraethylenoxy)cyclotriphosphazene derivatives” (2006).
Converted amounts (≈) assume the structure as drawn. The source made the active and inactive calls. No cut-off for these calls is given here.

Key:
Assay type in all cases: functional
BALB/3T3 = assay: Antiproliferative activity against BALB/3T3 cell line by MTT assay at 4 ug/ml; details: Mus musculus
L1210 = assay: Antiproliferative activity against mouse L1210 cell line by MTT assay at 4 ug/ml
MOLT-4 = assay: Antiproliferative activity against human MOLT4 cell line by MTT assay at 4 ug/ml
HL-60 = assay: Antiproliferative activity against human HL60 cell line by MTT assay at 4 ug/ml
P388 = assay: Antiproliferative activity against mouse P388 cell line by MTT assay at 4 ug/ml

**Q.** What does the source list for `ClP1(Cl)=NP2(Cl)=NP(Cl)(=N1)OCCOCCOCCOCCO2` (stereo not given)?
**A.** ID50 (BALB/3T3): inactive; ID50 (L1210): inactive; ID50 (MOLT-4): inactive; ID50 (HL-60): 36.9 µg/mL (≈ 78.6 µM); ID50 (P388): inactive
